Assay [1] has as its target human SK-N-SH neuroblastoma cells (uptake via NET) (Homo sapiens, UniProt P23975). The assay can be described thus: [125I]MIBG uptake inhibition in cultured SK-N-SH neuroblastoma cells. Format: cell-based.
For assay [2], the system named is 5HT uptake in (fore) brain or hypothalamic synaptosomes. Conditions: mice, i.p., assay type III; ref (5); cited from earlier work.
Assay [3] shares this test system. To be noted: rats, oral, assay type III; ref (4); cited from earlier work.

The chains behind the UniProt entries cited, without tags or fusion partners.
UniProt P23975, whole entry: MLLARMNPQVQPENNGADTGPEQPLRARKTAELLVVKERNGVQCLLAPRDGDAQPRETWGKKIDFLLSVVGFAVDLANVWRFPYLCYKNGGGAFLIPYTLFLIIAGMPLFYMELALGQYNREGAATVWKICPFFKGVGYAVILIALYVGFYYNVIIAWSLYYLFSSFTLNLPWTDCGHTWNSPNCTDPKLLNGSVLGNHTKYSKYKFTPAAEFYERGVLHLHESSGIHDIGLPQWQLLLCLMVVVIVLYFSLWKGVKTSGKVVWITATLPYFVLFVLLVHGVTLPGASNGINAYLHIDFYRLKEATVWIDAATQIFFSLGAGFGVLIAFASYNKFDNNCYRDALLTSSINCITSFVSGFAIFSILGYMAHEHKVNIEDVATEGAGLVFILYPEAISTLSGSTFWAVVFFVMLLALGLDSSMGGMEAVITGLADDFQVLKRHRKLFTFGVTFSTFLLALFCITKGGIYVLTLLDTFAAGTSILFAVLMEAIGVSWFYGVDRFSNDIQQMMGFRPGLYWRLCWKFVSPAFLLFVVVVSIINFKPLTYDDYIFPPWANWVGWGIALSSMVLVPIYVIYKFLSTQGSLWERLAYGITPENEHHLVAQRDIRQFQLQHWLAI

Where a name gives a salt, the structure may show the parent alone. Read-outs that look alike come from different tables or passages of the source. Marks after values point to notes of the source that are not given here.

As a reminder, the IC50 is the concentration needed to halve the response being measured. Low readings indicate greater potency, high ones weaker potency. In assay [1], `CN(C)CCCN1c2ccccc2CCc2ccccc21` returned an IC50 of 82 nM.
In the case of `CN(C)CCCC1(c2ccc(F)cc2)OCc2cc(C#N)ccc21` (stereo not shown) [Citalopram, citalopram-HBr], in assay [1] (inhibitor 10^−7 M), the “Effect on MIBG uptake in SK-N-SH neuroblastoma cells at one concentration (in words)” value is “negligible effect”.
Consider `Fc1ccc([C@@H]2CCNC[C@H]2COc2ccc3c(c2)OCO3)cc1` [Paroxetine, paroxetine-HCl], for which the entries for the “50 % effective dose” value in assay [2] and in assay [3] were 1 - 10^c mg/kg and 1.9^c mg/kg, respectively.

The record behind these values is article PMC7343696 (2020).
